For this assay, the target named is human carbonic anhydrase II (hCAII) (Homo sapiens, UniProt P00918). Nature of the assay: hCAII functional assay (hydrolysis of p-nitrophenylacetate, pNP release). It is filed as biochemical. As to the method:
A functional assay for hCAII enzyme was set up. Carbonic anhydrase catalyzes the hydrolysis of 4-nitrophenyl acetate (4-NPA) to nitrophenol, which can be monitored by absorbance at 400 nm. The enzymatic carbonic anhydrase assay generally includes 0.2-1.0 μM enzyme and 10-500 μM 4-NPA in 20-200 μL in assay buffer. […] Metal chelating agents (EDTA or EGTA), salt (NaCl, sulfate), detergent (Tween or Triton), and organic additives (acetonitrile, DMSO) may be employed to facilitate enzyme stability and reagent solubility. For the assay, 1 μM human carbonic anhydrase II, 50 mM MOPS (pH 7.6), 33 mM disodium sulfate, and 1 mM EDTA. To generate NTM-modified peptides, azide-derivatized peptides (via azide-PEG-amine and carbodiimide coupling to C-terminus of peptide) were conjugated to DBCO-coupled beads. […] To evaluate P1 dependence of the binding reaction, multiple P1 residues has been tested.

The results in this text go back to patent US20220283175A1, “METALLOENZYMES FOR BIOMOLECULAR RECOGNITION OF N-TERMINAL MODIFIED PEPTIDES” (Encodia, Inc., priority 2020, published 2022).

Usually IC50 stands for the midpoint of a concentration-inhibition curve. A high value points to weaker potency in that assay. Consider `C[C@H](NC(=O)[C@H](C)NC(=O)[C@@H](N)Cc1ccccc1)C(=O)N[C@@H](C)C(=O)N[C@@H](CCC(=O)O)C(=O)O` [FAAAE, reference compound], for which the midpoint of inhibition (1 μM hCAII, 500 μM pNP-OAc, 10 min at 37° C.), the IC50, lay at 152 µM. Moreover, for the setting “native (unmodified) peptide”, the binding/inhibition entry is “No significant binding/inhibition”.
